pIC50: −log10 of the molar value.
Biological target: TACE enzyme (Homo sapiens, UniProt P78536)
Assay: Enzymatic assay for TACE inhibition (fluorescent substrate)
Assay type: biochemical
Conditions: Table 1

Amino acid sequences for entries named in this document (tags omitted). Residues count along the entry.
UniProt P78536, 215-477: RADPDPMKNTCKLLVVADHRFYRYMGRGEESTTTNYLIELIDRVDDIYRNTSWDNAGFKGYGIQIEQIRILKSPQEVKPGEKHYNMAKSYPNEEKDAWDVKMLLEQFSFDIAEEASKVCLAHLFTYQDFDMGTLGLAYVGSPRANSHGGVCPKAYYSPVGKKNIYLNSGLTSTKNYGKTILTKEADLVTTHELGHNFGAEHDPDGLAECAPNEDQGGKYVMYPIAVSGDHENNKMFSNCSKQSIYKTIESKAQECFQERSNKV

- pIC50: 7.06
SMILES: CC#CCOc1ccc(S(=O)(=O)N(C)CC(C(=O)NO)N2CCN(S(C)(=O)=O)CC2)cc1 (stereo not shown) [Example 1, 3-[(4-but-2-ynyloxybenzenesulfonyl)methylamino]-N-hydroxy-2-(4-methanesulfonylpiperazin-1-yl)propionamide]
